Reference: ChEMBL document CHEMBL1151729 (J Med Chem, 2008)

Protein sequences, listed by entry. Tags and fused reporters are not part of them.
UniProt P47929, whole entry: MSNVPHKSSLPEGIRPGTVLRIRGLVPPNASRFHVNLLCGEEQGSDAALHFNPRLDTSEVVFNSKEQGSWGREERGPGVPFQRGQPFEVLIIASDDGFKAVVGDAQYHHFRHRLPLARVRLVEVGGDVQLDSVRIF
UniProt P09382, whole entry: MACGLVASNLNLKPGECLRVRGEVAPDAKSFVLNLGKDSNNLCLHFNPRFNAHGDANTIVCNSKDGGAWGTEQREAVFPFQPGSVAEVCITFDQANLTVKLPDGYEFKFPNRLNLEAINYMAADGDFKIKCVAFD

What was measured:
[1] = target: Galectin-9 (Homo sapiens, UniProt O00182); test: Binding affinity to galectin 9N terminal domain at 0 degC by fluorescence polarization assay
[2] = target: Galectin-7 (Homo sapiens, UniProt P47929); test: Binding affinity to galectin 7 at 0 degC by fluorescence polarization assay
[3] = target: Galectin-1 (Homo sapiens, UniProt P09382); test: Binding affinity to galectin 1 at 20 degC by fluorescence polarization assay

Kd [1]: 38 µM
Kd [2]: 160 µM
Kd [3]: 78 µM
SMILES: OC[C@H]1O[C@@H](S[C@@H]2O[C@H](CO)[C@H](O)[C@H](O)[C@H]2O)[C@H](O)[C@@H](O)[C@H]1O [THIODIGALACTOSIDE]
